Results taken from ChEMBL document CHEMBL4043066, “Drug Discovery Targeting Bromodomain-Containing Protein 4” (J Med Chem, 2017).

Assays:
[1] = biological target: T1, Bromodomain-containing protein 4 (Homo sapiens, UniProt O60885); assay: Inhibition of recombinant His-tagged BRD4 bromodomain 1 (K57 to E168 residues) (unknown origin) after 1 hr by TR-FRET assay
[2] = biological target: T1, Bromodomain-containing protein 4; assay: Inhibition of recombinant His-tagged BRD4 bromodomain 2 (E352 to E168 residues) (unknown origin) after 1 hr by TR-FRET assay
[3] = system: MX1; assay: Antiproliferative activity against human MX1 cells incubated for >= 72 hrs by CellTiter-Glo assay; assay type: functional, cell-based; settings: MX1, 72 h

| SMILES | IC50 [1] | IC50 [2] | EC50 [3] |
| --- | --- | --- | --- |
| CCOc1cc(=O)n(C)cc1-c1cc(N(CC2CC2)S(=O)(=O)CC)ccc1Oc1ccc(F)cc1F | 0.061 µM | 0.0023 µM |  |
| CC(=O)Nc1ccc(CNc2cccc(Oc3ccc(S(C)(=O)=O)cc3-c3cn(C)c(=O)c4[nH]ccc34)c2)cc1 |  |  | 0.014 µM |
| CCS(=O)(=O)c1ccc(OCC2CC2(F)F)c(-c2cn(C)c(=O)c3[nH]c(C#CCN(C)C)cc23)c1 (centres undefined) |  |  | 0.0094 µM |
